Experiment: Testosterone solubility by the increment method
Type: physicochemical
Settings: water/ethanol mixture
Method: A known amount of solvent (2 mL) is stirred at 37° C. in a closed Erlenmeyer.

For `C[C@]12CC[C@H]3[C@@H](CCC4=CC(=O)CC[C@@]43C)[C@@H]1CC[C@@H]2O` [Testosterone], which Testosterone solubility (95% ethanol (v/v) 56/44, 37° C.) is on record?
Its Testosterone solubility is 0.027 g/g.

And the Testosterone solubility (95% ethanol (v/v) 63/37, 37° C.)?
Its Testosterone solubility is 0.035 g/g.

And the Testosterone solubility (95% ethanol (v/v) 74/26, 37° C.)?
The Testosterone solubility was 0.061 g/g.

And the Testosterone solubility (95% ethanol (v/v) 84/16, 37° C.)?
Its Testosterone solubility is 0.146 g/g.

What about the Testosterone solubility (95% ethanol (v/v) 86/14, 37° C.) of the same compound?
Its Testosterone solubility is 0.195 g/g.

And the Testosterone solubility (95% ethanol (v/v) 100/0, 37° C.)?
Its Testosterone solubility is 0.420 g/g.

From US20080038220A1 (LABORATOIRES BESINS INTERNATIONAL, priority 2004, published 2008)
